Laboratory results from patent US10961289B2, “Small molecules blocking histone reader domains” (The University of Copenhagen, priority 2015, dated 2021).

Target: T1, TONSL ARD (Homo sapiens, UniProt Q96HA7)
T1 construct: GST (N); made in house; host or cells: E. coli BL21(DE3)-RIL
T1 sequence (Q96HA7 512-692): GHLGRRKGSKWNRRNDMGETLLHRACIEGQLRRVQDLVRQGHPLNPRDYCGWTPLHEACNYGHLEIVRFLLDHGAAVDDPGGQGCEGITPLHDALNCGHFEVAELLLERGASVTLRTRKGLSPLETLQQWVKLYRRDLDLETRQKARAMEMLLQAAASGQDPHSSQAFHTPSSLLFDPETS
Assay: ITC of TONSL ARD binding to histone peptides
Details: ITC (FIG. 13); for H4K20me1/2 also peptide pull-downs
Experimental: All the ITC titrations were performed on a Microcal ITC 200 calorimeter at 25° C. The peptides of histone H4 (residues 9-25) and its modified peptides K16ac (with acetylation on Lys16), H18W (with His18 mutated to Trp18), H4K20me1 (mono-methylation on Lys20) and H4K20me2 (di-methylation on Lys20), and peptide of histone H3(1-19)K9me1 (mono-methylation on Lys9) were all synthesized at Tufts University Core Facility. The exothermic heat of the reaction was measured by 17 sequential 2.2 μl injections of the peptides (1.41 mM in buffer 20 mM Tris pH 7.5 and 0.5 M NaCl) into 200 μl of the TONSL ARD solution (145 μM in the same buffer), spaced at intervals of 150 s. The data were processed with Microcal Origin software and the curves were fit to a single […] binding model.

Substance: H3K9me1: peptide of histone H3(1-19)K9me1 (mono-methylation on Lys9) [Example H3K9me1]
- binding to TONSL ARD: no binding
